Laboratory results: patent US20220153847A1 (Chugai, published 2022)

Key:
[1] = target: T1, HLA-DQ2.5 on HLA-DQ2.5-positive PBMC B cells (human, UniProt P01909 24-254; P01920 33-261); assay: FACS, PBMC B cells; IC17=0%, DQN0139bb=100%
T1 construct: whole, on cells; also called HLA-DQ2.5+ PBMC B cell

HLA-DQ2.2 on Ba/F3 cells = target: T2, HLA-DQ2.2 on Ba/F3 cells (human, UniProt P01909 24-216, limits assumed); assay: FACS, Ba/F3 cells; IC17=0%, DQN0139bb=100%;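 note: flow cytometric binding of anti-HLA-DQ antibodies, each applied at 5 µg/mL for 30 min at room temperature, to Ba/F3 cell lines displaying HLA-DQ–peptide complexes; antibody tested at 5 microgram/mL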
T2 construct: whole, on cells; also called Ba/F3-HLA-DQ2.2

[2] = target: T3, HLA-DQ2.5/avenin 3 peptide complex on Ba/F3 cells (human); assay: FACS, Ba/F3 cells; IC17=0%, DQN0139bb=100%;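 note: flow cytometric binding of anti-HLA-DQ antibodies, each applied at 5 µg/mL for 30 min at room temperature, to Ba/F3 cell lines displaying HLA-DQ–peptide complexes; antibody tested at 5 microgram/mL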
T3 construct: whole, on cells; also called Ba/F3-HLA-DQ2.5/avenin 3

[3] = target: T4, HLA-DQ2.5/secalin 1 peptide complex on Ba/F3 cells (human); assay: FACS, Ba/F3 cells; IC17=0%, DQN0139bb=100%;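 note: flow cytometric binding of anti-HLA-DQ antibodies, each applied at 5 µg/mL for 30 min at room temperature, to Ba/F3 cell lines displaying HLA-DQ–peptide complexes; antibody tested at 5 microgram/mL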
T4 construct: whole, on cells; also called Ba/F3-HLA-DQ2.5/secalin 1

[4] = target: T5, HLA-DQ2.5/33mer gliadin peptide complex on Ba/F3 cells (human); assay: FACS, Ba/F3 cells; IC17=0%, DQN0139bb//IC17=100%;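 note: flow cytometry binding of anti-HLA-DQ antibodies at 5 µg/mL, incubated 30 min at room temperature with Ba/F3 lines presenting HLA-DQ/peptide complexes; antibody tested at 5 microgram/mL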
T5 construct: whole, on cells; also called Ba/F3-HLA-DQ2.5/33mer gliadin

[5] = target: T6, HLA-DQ2.5/alpha 1 gliadin peptide complex on Ba/F3 cells (human); assay: FACS, Ba/F3 cells; IC17=0%, DQN0139bb=100%;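 note: flow cytometric binding of anti-HLA-DQ antibodies, each applied at 5 µg/mL for 30 min at room temperature, to Ba/F3 cell lines displaying HLA-DQ–peptide complexes; antibody tested at 5 microgram/mL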
T6 construct: whole, on cells; also called Ba/F3-HLA-DQ2.5/alpha 1 gliadin; HLA-DQ2.5/a1 gliadin

B1: DQN0344xx (antibody, V domains shown)
VH: QSLEESGGGLVKPGGTLTLTCTASGFSFSSSYWMCWVRQAPGKGLEWVACVYGGSDTTYYASWTKGRFTISKGSSTTVALQVTSLTAADTATYFCARDPLNYYYYGELNLWGPGTLVTVSS
VL: AVVLTQTASPVSAAVGGTVTIRCQATENIYSGLAWYQQKPGQPPKVLIYYVSTLASGVPSRFKGSGSGTEYTLTISGVQCDDAATYYCQTYHDISNVTFGGGTKVEIK
- % MFI [1]: -0.1%
- % MFI (HLA-DQ2.2 on Ba/F3 cells): -0.1%

B2: DQN0385ee (antibody, V domains shown)
VH: QEQLEESGGDLVKPGASLTLTCTASGFSFYSSYWICWVRQAPGKGLEWIACIDTGSGSIDYASWVNGRFTISKTSSTTVTLQMTSLTVADTATYFCARDIGIDYNFWGPGTLVTVSS
VL: AFELTQTPSFVEAAVGGTVTIKCQATQSISSYLNWYQQKPGQPPKLLIYYASTLASGVPSRFKGSGSGTEFSLTISGVECADAATYYCHYGISYVSFGGGTKVEIK
notes: also called DQN0385xx
- % MFI [2]: 1.1%
- % MFI [3]: 13.7%

B3: DQN0385ee//IC17 (bispecific antibody, human IgG1, kappa)
heavy 1: QEQLEESGGDLVKPGASLTLTCTASGFSFYSSYWICWVRQAPGKGLEWIACIDTGSGSIDYASWVNGRFTISKTSSTTVTLQMTSLTVADTATYFCARDIGIDYNFWGPGTLVTVSSASTKGPSVFPLAPSSKSTSGGTAALGCLVKDYFPEPVTVSWNSGALTSGVHTFPAVLQSSGLYSLSSVVTVPSSSLGTQTYICNVNHKPSNTKVDKRVEPKSCDKTHTCPPCPAPELRRGPSVFLFPPKPKDTLMISRTPEVTCVVVDVSHEDPEVKFNWYVDGVEVHNAKTKPREEQYNSTYRVVSVLTVLHQDWLNGKEYKCKVSNKALPAPIEKTISKAKGQPREPQVYTLPPSREEMTKNQVSLTCLVKGFYPSDIAVEWESNGQPENNYKTTPPYLDSDGSFFLYSKLTVDKSRWQQGNVFSCSVMHEALHNHYTQESLSLSP
light 1: AFELTQTPSFVEAAVGGTVTIKCQATQSISSYLNWYQQKPGQPPKLLIYYASTLASGVPSRFKGSGSGTEFSLTISGVECADAATYYCHYGISYVSFGGGTKVEIKRTVAAPSVFIFPPSDEQLKSGTASVVCLLNNFYPREAKVQWKVDNALQSGNSQESVTEQDSKDCTYSLSSTLTLSKADYEKHKVYACEVTHQGLSSPVTKSFNRGEC
heavy 2: QVQLQQSGPQLVRPGASVKISCKASGYSFTSYWMHWVNQRPGQGLEWIGMIDPSYSETRLNQKFKDKATLTVDKSSSTAYMQLSSPTSEDSAVYYCALYGNYFDYWGQGTTLTVSSASTKGPSVFPLAPSSKSTSGGTAALGCLVKDYFPEPVTVSWNSGALTSGVHTFPAVLQSSGLYSLSSVVTVPSSSLGTQTYICNVNHKPSNTKVDKRVEPKSCDKTHTCPPCPAPELRRGPSVFLFPPKPKDTLMISRTPEVTCVVVDVSHEDPEVKFNWYVDGVEVHNAKTKPREEQYNSTYRVVSVLTVLHQDWLNGKEYKCKVSNKALPAPIEKTISKAKGQPREPQVYTLPPSRKEMTKNQVSLTCLVKGFYPSDIAVEWESNGQPENNYKTTPPYLDSDGSFFLYSKLTVDKSRWQQGNVFSCSVMHEALHNHYTQKSLSLSP
light 2: DIQMTQSSSSFSVSLGDRVTITCKASEDIYNRLAWYQQKPGNAPRLLISGATSLETGVPSRFSGSGSGKDYTLSITSLQTEDVATYYCQQYWSTPYTFGGGTKLEVKRTVAAPSVFIFPPSDEQLKSGTASVVCLLNNFYPREAKVQWKVDNALQSGNSQESVTEQDSKDSTYSLSSTLTLSKADYEKHKVYACEVTHQGLSSPVTKSFNRGEC
- % MFI [4]: 73.9%

B4: DQN0344xx//DQN0429cc (bispecific antibody, human IgG1, kappa)
heavy 1: QSLEESGGGLVKPGGTLTLTCTASGFSFSSSYWMCWVRQAPGKGLEWVACVYGGSDTTYYASWTKGRFTISKGSSTTVALQVTSLTAADTATYFCARDPLNYYYYGELNLWGPGTLVTVSSASTKGPSVFPLAPSSKSTSGGTAALGCLVKDYFPEPVTVSWNSGALTSGVHTFPAVLQSSGLYSLSSVVTVPSSSLGTQTYICNVNHKPSNTKVDKRVEPKSCDKTHTCPPCPAPELRRGPSVFLFPPKPKDTLMISRTPEVTCVVVDVSHEDPEVKFNWYVDGVEVHNAKTKPREEQYNSTYRVVSVLTVLHQDWLNGKEYKCKVSNKALPAPIEKTISKAKGQPREPQVYTLPPSREEMTKNQVSLTCLVKGFYPSDIAVEWESNGQPENNYKTTPPYLDSDGSFFLYSKLTVDKSRWQQGNVFSCSVMHEALHNHYTQESLSLSP
light 1: AVVLTQTASPVSAAVGGTVTIRCQATENIYSGLAWYQQKPGQPPKVLIYYVSTLASGVPSRFKGSGSGTEYTLTISGVQCDDAATYYCQTYHDISNVTFGGGTKVEIKRTVAAPSVFIFPPSDEQLKSGTASVVCLLNNFYPREAKVQWKVDNALQSGNSQESVTEQDSKDCTYSLSSTLTLSKADYEKHKVYACEVTHQGLSSPVTKSFNRGEC
heavy 2: QEQLVESGGGLVQPEGSLTLTCTASGFSFSSSYYMCWVRQAPGKGLEWIGCIYTGSGSTDYATWVNGRFTISKTSSTTVTLQMTSLTVADTATYFCARDIGIDYNFWGPGTLVTVSSASTKGPSVFPLAPSSKSTSGGTAALGCLVKDYFPEPVTVSWNSGALTSGVHTFPAVLQSSGLYSLSSVVTVPSSSLGTQTYICNVNHKPSNTKVDKRVEPKSCDKTHTCPPCPAPELRRGPSVFLFPPKPKDTLMISRTPEVTCVVVDVSHEDPEVKFNWYVDGVEVHNAKTKPREEQYNSTYRVVSVLTVLHQDWLNGKEYKCKVSNKALPAPIEKTISKAKGQPREPQVYTLPPSRKEMTKNQVSLTCLVKGFYPSDIAVEWESNGQPENNYKTTPPYLDSDGSFFLYSKLTVDKSRWQQGNVFSCSVMHEALHNHYTQKSLSLSP
light 2: B3 light 1 with A14R, S72T
- % MFI [4]: 91.6%

B5: DQN0429cc (antibody, V domains shown)
VH: QEQLVESGGGLVQPEGSLTLTCTASGFSFSSSYYMCWVRQAPGKGLEWIGCIYTGSGSTDYATWVNGRFTISKTSSTTVTLQMTSLTVADTATYFCARDIGIDYNFWGPGTLVTVSS
VL: B2 VL with A14R, S72T
notes: also called DQN0492cc
- % MFI [5]: 5.4%

Changes are numbered by the printed parent chain.
